The chains behind the UniProt entries cited, without tags or fusion partners. Residues count along the entry.
UniProt P09211, 2-210 limits assumed: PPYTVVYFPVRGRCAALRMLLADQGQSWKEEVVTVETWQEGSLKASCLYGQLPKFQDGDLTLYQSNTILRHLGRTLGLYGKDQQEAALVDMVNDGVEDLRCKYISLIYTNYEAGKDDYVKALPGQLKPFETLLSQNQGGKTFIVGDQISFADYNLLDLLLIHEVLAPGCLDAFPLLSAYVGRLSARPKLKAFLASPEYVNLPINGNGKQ

According to publication PMC9176637:

Assays:
GST P1-1 = GST P1-1 (Homo sapiens, UniProt P09211); experiment: GST P1-1 inhibition, sequential injection analysis (SIA) method, GSH/CDNB, absorbance 340 nm; details: read-out: IC50 (µM ± SD), GST P1-1 inhibition, 37 °C, pH 6.5, 1.8 mM CDNB, 4 min stop, triplicate
[1] = tested on: ovarian cancer cell lines (A2780, A2780cisR); details: cited from earlier work

| IC50 (GST P1-1) | SMILES | GST inhibitory activity in ovarian cancer cell lines [1] |
| --- | --- | --- |
| 152 µM | C=C(CC)C(=O)c1ccc(OCC(=O)Oc2ccccc2P(c2ccccc2)c2ccccc2)c(Cl)c1Cl |  |
| 181 µM | C=C(CC)C(=O)c1ccc(OCC(=O)Oc2ccc(P(c3ccccc3)c3ccccc3)cc2)c(Cl)c1Cl |  |
| 138 µM | C=C(CC)C(=O)c1ccc(OCC(=O)OCCOC(=O)c2ccc(P(c3ccccc3)c3ccccc3)cc2)c(Cl)c1Cl | modest GST inhibitory activity |
